Laboratory results from BindingDB's records for doi:10.1021/jm061066t (Pfizer, 2007).

Target: Urokinase-type plasminogen activator (Homo sapiens, UniProt P00749)

## N=C(N)c1ccc2nc(Cc3nc4ccc(C(=N)N)cc4[nH]3)[nH]c2c1
  Ki: 2.3 µM
